The text below walks through data of EP4825847A1, “NMDA RECEPTOR ANTAGONIST AND USE THEREOF” (dated 2026).

By UniProt entry, the sequences of proteins in these tests, tags left out. Residues count along the entry.
UniProt Q12879, 23-1464 limits assumed: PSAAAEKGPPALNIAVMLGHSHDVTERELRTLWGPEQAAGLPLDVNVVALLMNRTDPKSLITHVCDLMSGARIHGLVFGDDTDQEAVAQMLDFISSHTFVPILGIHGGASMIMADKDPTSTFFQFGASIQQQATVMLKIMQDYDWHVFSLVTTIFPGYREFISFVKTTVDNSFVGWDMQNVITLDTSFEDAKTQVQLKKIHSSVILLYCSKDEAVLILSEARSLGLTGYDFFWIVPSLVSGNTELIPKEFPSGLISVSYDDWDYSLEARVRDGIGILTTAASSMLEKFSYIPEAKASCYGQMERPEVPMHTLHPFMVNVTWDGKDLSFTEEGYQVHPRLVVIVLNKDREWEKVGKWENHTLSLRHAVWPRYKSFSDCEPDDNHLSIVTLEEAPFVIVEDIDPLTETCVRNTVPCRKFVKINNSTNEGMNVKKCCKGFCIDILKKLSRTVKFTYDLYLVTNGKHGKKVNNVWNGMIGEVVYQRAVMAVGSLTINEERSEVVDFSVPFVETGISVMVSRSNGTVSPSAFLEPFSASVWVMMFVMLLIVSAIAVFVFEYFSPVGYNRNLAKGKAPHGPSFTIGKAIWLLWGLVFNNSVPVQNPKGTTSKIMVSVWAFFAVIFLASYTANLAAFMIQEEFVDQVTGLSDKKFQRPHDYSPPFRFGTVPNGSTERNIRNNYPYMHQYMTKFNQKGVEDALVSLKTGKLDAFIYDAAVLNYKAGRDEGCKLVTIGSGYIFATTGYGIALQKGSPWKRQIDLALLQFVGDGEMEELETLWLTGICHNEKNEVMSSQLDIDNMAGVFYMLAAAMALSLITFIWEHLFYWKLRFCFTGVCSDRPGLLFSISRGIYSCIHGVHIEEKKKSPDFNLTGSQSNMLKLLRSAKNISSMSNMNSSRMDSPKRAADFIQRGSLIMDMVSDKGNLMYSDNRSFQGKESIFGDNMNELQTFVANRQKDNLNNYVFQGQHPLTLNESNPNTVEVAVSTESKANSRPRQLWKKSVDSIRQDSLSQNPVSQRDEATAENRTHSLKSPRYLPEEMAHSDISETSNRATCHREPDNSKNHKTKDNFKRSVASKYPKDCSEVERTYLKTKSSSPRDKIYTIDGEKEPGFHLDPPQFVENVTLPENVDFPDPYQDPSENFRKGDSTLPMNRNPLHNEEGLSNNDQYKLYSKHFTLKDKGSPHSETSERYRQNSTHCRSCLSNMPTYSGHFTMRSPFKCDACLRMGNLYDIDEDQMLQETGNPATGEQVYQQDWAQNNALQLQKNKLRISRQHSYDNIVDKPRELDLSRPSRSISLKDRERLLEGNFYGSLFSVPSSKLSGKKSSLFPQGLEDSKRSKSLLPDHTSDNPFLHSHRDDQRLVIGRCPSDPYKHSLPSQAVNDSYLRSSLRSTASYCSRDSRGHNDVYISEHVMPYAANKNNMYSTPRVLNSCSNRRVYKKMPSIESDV

The test system of data set [1] is C57BL/6J male mice. As to the kind of experiment: Open field test of mice. The note with it: 10 mg/kg; within 5-20 min after administration; compared with the saline group. From the text: Open field test is a standard behavioral method to evaluate the voluntary movement behavior and the exploratory behavior, which is widely used in the research of neurological and psychiatric diseases such as depression, anxiety, Parkinson's disease and screening of drugs acting on central nervous system.
Due to the limited tests to evaluate the hallucinogenic effect of NMDAR antagonists, the open field test is used in the present invention to evaluate whether the compound affects the spontaneous locomotor activity of mice and also used to indirectly evaluate whether the compound has hallucinogenic effect. Furthermore, the increase of spontaneous locomotor activity of mice is also considered as one of the positive symptoms of schizophrenia. Therefore, the open field test can also be used to evaluate whether the compound has the psychotomimetic-like side effects.
The animal information was the same as that in Test Example 2. The number of animals in each group (N) was 10, the administration mode was intraperitoneal injection or oral administration, the dosage of administration was 5 or 10 mg/kg, and the volume of administration was 10 mL/kg.
Test process: The open field test chamber was a soundproof chamber made of opaque plexiglass and having an inner diameter of 40*40*40 cm, and the analysis software was purchased from Noldus (Ethovision XT 11.5). The test was carried out in a quiet environment. The animals were weighed and acclimated in the test chamber for at least 30 min before the test. Before the test, the software EthoVision XT 11.5 was set, the wild-type mice were placed at the center of the bottom of the chamber, and the activity within 30 min or 20 min was recorded as the baseline. After 30 min, the mice were taken out and given corresponding doses of solvent (control group) or test compound according to their body weight. Immediately after administration, the mice were placed in the same observation chamber as that in the baseline stage, and their activities within 40 min after administration were recorded. The instrument was wiped with 75% alcohol after each test, to avoid the influence of the information left by animals in the last round (such as the smell of animals' feces and urine) on the next test result. The next round of animals were changed to continue the test. After the test, data were collected for statistical analysis. The difference was analyzed by unpaired t-test to have statistical significance, where P<0.05 means that there was a significant difference. ^# P<0.05, * P<0.05, **P<0.01, ***P<0.001, **** P<0.0001. After the test, the distance (cm) traveled by the mice in the control and test compound groups every 5 min was statistically analyzed. 33 to 36.

Data set [2] has as its system C57BL/6J male mice. As to the kind of experiment: Forced swimming test. The note with it: for 1-h inhibition rate: i.p., 10 mg/kg, immobility time 1 hr after administration; for antidepressant effect: 10 mg/kg i.p. As for the experimental part:
Test animals: C57BL/6J male mice aged 10-12 weeks were purchased from Speifu (Suzhou) Biotechnology Co., Ltd. The animals arrived at the test center before the test and acclimated in the feeding room for more than 7 days. 5 animals per cage was bred at a temperature of 23-24°C, under a 12-hr light/12-hr dark cycle. Before the behavioral test, the animals were taken to the behavioral test chamber 1 hour in advance, to acclimate to the environment.
Forced swimming test is a standard behavioral test to evaluate the depressive behavior of rodents. […] It is generally accepted that this behavioral despair is similar to the depressive symptoms in humans. The objective of this test was to evaluate the antidepressant efficacy of the compound of the present invention in C57 mice.
In the FST test, the number of animals in each group (N) was 15, the administration mode was intraperitoneal injection (i.p.) or oral gavage (p.o.), the dosage of administration was 5, 10 or 20 mg/kg (depending on the experimental needs), and the volume of administration was 10 mL/kg. The vehicle was 0.9% physiological saline.
Test process: 1. The test was carried out in a quiet environment. The animals were weighed and acclimated in the test chamber for at least 30 min before the test.
2. The compound to be tested was dissolved in 0.9% physiological saline, and the corresponding volume of the compound was given by intraperitoneal injection (i.p.) or oral gavage (p.o.) according to the weight of mice and used as the test group. 0.9% physiological saline was used as the control group, and the dosage was the target dosage of administration. The administration process was double-blinded administration.
3. 1 hr after administration, the mice were placed in a transparent plexiglass water tank with a diameter of 15 cm and a height of 30 cm, in which water was injected to a height of about 15 cm, and the water temperature was 23-25°C. The total recording time was 6 min.
4. The immobility time of mice within later 4 min was analyzed, with which the degree of helplessness and despair of mice was reflected.
5. The immobility time of mice between the administration group and the control group was compared, and the antidepressant activity (1-h inhibition rate) of the compound to be tested was analyzed. The difference was analyzed by unpaired t-test to have statistical significance, P<0.05 means that there was a significant difference. * P<0.05, **P<0.01, ***P<0.001. [formula]

In data set [3] the target is human NMDA receptor GluN1 and GluN2A subunits (Homo sapiens, UniProt Q05586+Q12879). As to the kind of experiment: Whole-cell patch-clamp recording of NMDA receptor-mediated current in HEK293 cells. Particulars: compound at 10 µM, glutamic acid 100 µM. How it is done: The day before transfection, HEK293 cells were inoculated into a 24-well plate with a 10 mm glass slide, and the glass slide was coated with polylysine in advance to increase the cell attachment. DMEM medium containing 10% FBS was added, and the cells were cultured in an incubator at 37°C and 5% CO2. When the cells were grown to 60%-70% confluency after 18-24 hrs, TRE-GluN1-GluN2A containing human GluN1 and GluN2A, and the plasmid cDNAs of tTA and pCAG-EGFP were transfected into HEK293 cells by lipofectin transfection (TRE-GluN1-GluN2A: tTA: pCAG-EGFP was 0.2 µg : 0.2 µg : 0.02 µg). Before transfection, a new DMEM medium was changed, and 1 µg/mL Dox (doxycycline) was added to the medium to induce stable expression. 100 µM D-APV and 10 mM MgCl2 were added to avoid excitotoxicity to cells caused by NMDAR overexpression. About 24 hrs after transfection, the cells with green fluorescence were selected for electrophysiological recording.
The glass slide inoculated with HEK293 cells was placed in a recording chamber, and an extracellular solution (NaCl 140 mM, KCl 2.8 mM, HEPES 10 mM, CaCl2 1 mM, glycine 0.1 mM, pH7.2) was perfused at a speed of 4 mL/ min. The channels of the ALA-VC^3 eight-channel pressurized perfusion system were filled with an extracellular solution for washing, an extracellular solution containing glutamic acid (100 µM), and an extracellular solution containing glutamic acid and the compound to be tested respectively. The dripping rate was approximately 1 drop per sec, with a volume of 10 µL per drop. HEK293 cells with moderate green fluorescence intensity and good attachment were recorded under a fluorescence microscope. The delivery glass microtube of the perfusion system was positioned at a distance of approximately ten cell diameters away from the cell to be recorded. The drug was sprayed on the cell surface under air pressure (0.02 MPa). The glass electrode with a resistance of 4-6 MΩ was drawn with a microelectrode drawing instrument, and filled with an internal solution (CsCl 125 mM, HEPES 10 mM, EGTA 11 mM). Using a microelectrode manipulator, the glass electrode was slowly pushed to the cells. After the electrode was attached to the cell membrane, a negative pressure was applied, to form a high-resistance seal of 1 GΩ or higher between the electrode tip and the cell membrane, and then a negative pressure was applied to rupture the cell member and establish a whole-cell recording configuration. After the whole cell recording configuration was formed, the cell membrane potential was clamped at -70 mV. The extracellular solution containing 100 µM glutamic acid, the extracellular solution containing 100 µM glutamic acid and the compound to be tested, and the extracellular fluid were sprayed by the perfusion system on the surface of the cell membrane in sequence, for a time of 10 s, 20 s, and 10 s respectively. The NMDA receptor-mediated current was recorded to evaluate the inhibitory effect of the compound to be tested on NMDAR containing GluN2A. The test process was controlled by pCLAMP 10.6, and the stimulation signal is generated and the feedback signal is collected by using Digidata 1440A digital-to-analog converter.
In the test, the inhibition (%) on NMDAR-mediated current was evaluated after the compound was administered at a concentration of 10 µM, or the inhibition of the compound at 10, 3, 1, 0.3, 0.1, and 0.03 µM were tested, and fitted to obtain the IC50 value.
The inhibition percentage (inhibition rate) of the compound of the present invention on NMDAR-mediated current = (1- NMDAR-mediated current after administration/NMDAR-mediated current before administration)*100%. The inhibition rates of the compound at 10, 3, 1, 0.3, 0.1, and 0.03 µM were imported into Graphpad prism software, and subjected to Nonlinear Regression analysis. The IC50 value was automatically calculated by curve fitting.

Data set [4] in a line: Pharmacokinetic test in mice. How it is done:
The test was to investigate the pharmacokinetic characteristics of the compound of the present invention in C57BL/6J male mice after oral administration (oral gavage) and intravenous injection.
Male C57BL/6J mice aged 10-12 weeks were given the solution of the compound by intravenous injection (i.v.) and oral administration (p.o.) respectively. The vehicle for intravenous injection was 0.9% physiological saline for injection. The administration dosage volume was 5 mL/kg. The animals were allowed to normal access to food and water before administration. The vehicle for oral administration was 0.9% physiological saline for injection. The administration dosage volume was 10 mL/kg. The animals were fasted for 16 hrs before administration. 0.0333, 0.1667, 0.3330, 1, 2, 4, 6, 8, 24 hrs after administration, about 70 µL of blood was collected from the facial veins of the two groups of animals, transferred to an anticoagulant tube with EDTA-K2, placed on ice, and then centrifuged at 4 Celsius degrees in 1 hr to separate the plasma (4500 g, 15 min). The drug concentration was analyzed by LC-MS/MS, and the related pharmacokinetic parameters were calculated through the linear-log trapezoidal method by non-compartmental analysis using PKSolver2.0 kinetic software.

[5] abbreviates: Intravenous administration, 1 mg/kg.

With `CN[C@]1(c2ccccc2Cl)CCCCC1=O`, the “distance traveled by the mice” value in the data set on C57BL/6J male mice [1] is “significantly increases”.
`Clc1ccccc1[C@@]12CCCC[C@@H]1OCCN2` showed a 1-h inhibition rate in the data set on C57BL/6J male mice [2] of 19.1%.
Still for that read-out and setting: next, `Clc1ccccc1[C@]12CCCC[C@@H]1OCCN2`: 13.8%; `Clc1ccccc1[C@]12CCCC[C@H]1OCCN2`: 9.1%.
In the case of `Clc1sccc1[C@]12CCCC[C@@H]1OCCN2`, in the data set with C57BL/6J male mice [2], the antidepressant effect result was “obvious antidepressant effect” and the 1-h inhibition rate was found to be 38.6%. Besides, in data set [3], the “% (10 µM) inhibition on NMDAR-mediated current” value was found to be 93%.
The like results for `Fc1csc([C@@]23CCCC[C@@H]2OCCN3)c1` were, in that order, “obvious antidepressant effect”, 58.2% and 85%.
The like results for `[2H]C1([2H])CO[C@@H]2CCCC[C@]2(c2cccs2)N1` were, in that order, “obvious antidepressant effect”, 27.4% and 91%.
As for `c1cc([C@@]23CCCC[C@H]2OCCN3)cs1`, in the data set with C57BL/6J male mice [2], the antidepressant effect entry is on record as “obvious antidepressant effect” and the 1-h inhibition rate is 36.5%. Moreover, in data set [3], the “% (10 µM) inhibition on NMDAR-mediated current” value worked out at 83%.
`Clc1cccc(C23CCCOC2CCNC3)c1` (single isomer, unassigned): in data set [4] (setting [5]), the “AUC0-last” value was 176 ng·h/mL and the “Cl” value was 93 mL/min/kg. In data set [4] (Oral administration 50 mg/kg vs i.v. 1 mg/kg), the “Bioavailability (F%)” value came out at 66%. Further, in data set [4] (Oral administration, 50 mg/kg), the “AUC0-last” value was 5862 ng·h/mL and the “T1/2” value worked out at 1.21 h.
